Key:
[1] = system: all cell lines, both neuronal and non-neuronal

`NC(=O)c1ncn([C@@H]2O[C@H](CO)[C@@H](O)[C@H]2O)n1` [Ribavirin, 1-(β-D-ribofuranosyl)-1H-1,2,4-triazole-3-carboxamide] was tested, and the “cell number (toxic effect)” value (HCN cells) was “decrease in cell number is clearly visible” and the toxic concentrations [1] was “greater than 400 nM”.

From patent publication US6680292B1 (The Salk Institute for Biological Studies, priority 1998, dated 2004)
